Where two headings read alike, the source gives them in different places.
Settings: 0.03 mCi/ml, excipient 1 mg/ml in sodium acetate-acetic acid buffer pH 5.80, 25° C.

## CCO [10% EtOH, EtOH]
0 hour after mixing
  Percentage of ^225Ac present in [^225Ac]Ac-DOTA-TATE: 99.42%

## O=C(O)CN(CCN(CC(=O)O)CC(=O)O)CCN(CC(=O)O)CC(=O)O [DTPA, Diethylenetriaminepentaacetic acid]
0 hour after mixing
  Percentage of ^225Ac present in [^225Ac]Ac-DOTA-TATE: 99.42%

## N[C@@H](CCC(=O)N[C@@H](CS)C(=O)NCC(=O)O)C(=O)O [L-Glutathione]
0 hour after mixing
  Percentage of ^225Ac present in [^225Ac]Ac-DOTA-TATE: 99.42%

## CSCC[C@H](N)C(=O)O [L-Methionine]
0 hour after mixing
  Percentage of ^225Ac present in [^225Ac]Ac-DOTA-TATE: 99.42%

## Oc1ccccc1 [Phenol]
0 hour after mixing
  Percentage of ^225Ac present in [^225Ac]Ac-DOTA-TATE: 98.61%
24 hours after mixing
  Percentage of ^225Ac present in [^225Ac]Ac-DOTA-TATE: 94.44%

## O=C(O)c1ccccc1O [Salicylic Acid]
0 hour after mixing
  Percentage of ^225Ac present in [^225Ac]Ac-DOTA-TATE: 99.42%

## Albumin: excipient at 1 mg/ml in the buffer
0 hour after mixing
  Percentage of ^225Ac present in [^225Ac]Ac-DOTA-TATE: 98.61%
24 hours after mixing
  Percentage of ^225Ac present in [^225Ac]Ac-DOTA-TATE: 94.44%
48 hours after mixing
  Percentage of ^225Ac present in [^225Ac]Ac-DOTA-TATE: 89.39%

Reference: patent publication US11819556B2, “Stabilized compositions of radionuclides and uses thereof” (RayzeBio, Inc., priority 2021, dated 2023)
